We go through 1 compound from patent US20070202163A1 (priority 2005, published 2007).

Each structure is given as a SMILES string. Where two headings read alike, the source gives them in different places.

For the series the following is noted: rabbits, mean ± SD. Here is the method: Sublingual tablets or IM doses were administered using a Randomized Crossover study design over 5-consecutive weeks.
Animals were evaluated for viability once-daily throughout the study. Cageside clinical observations were performed twice-daily from the initiation of dosing until the end of treatment. Body weights were obtained upon receipt, on Study Day 1 and weekly thereafter.
Blood samples (approximately 1 mL/time point) were obtained from an indwelling arterial catheter placed approximately 30-minutes prior to initiation of sample collection. Samples were collected immediately prior to dosing (pre-dose baseline) and at approximately 5, 10, 15, 20, 30, 40, 60, 90, 120, and 180 minutes after dosing. At later time points, the samples were obtained by direct needle puncture or by removing the catheter and allowing blood to flow directly from the animal's ear artery into the blood collection tube.
Immediately after collection, the tube was inverted several times to disperse the anticoagulant and then placed on ice until centrifugation. The blood samples were centrifuged (˜2000×g for 10 minutes at 8° C.) within approximately 15-30 minutes of collection to separate the cellular and plasma fractions. The plasma fraction was harvested into screw-capped tubes and stored at approximately −70° C. (±10° C.) until analyzed. […] The remaining red blood cell fraction was discarded. […]
A freshly prepared standard curve was analyzed along with samples on each day of analysis. […] Calibrator concentrations were 0.5, 1, 2, 4, 8, 12, 16 and 20 ng/mL as determined in the validation study. […]
Elimination half-life (T½), maximum concentration (Cmax), time of maximum concentration (Tmax), area under the plasma concentration-time curve from time 0 through the final timepoint (AUC0-t), and area under the plasma concentration-time curve from time 0 extrapolated to infinity (AUC0-∞) were calculated for this study. […] The elimination rate constant, lambda z (λz), was determined by WinNonlin using the best fit method.

For `CNC[C@H](O)c1ccc(O)c(O)c1` [Epinephrine], the Tmax2 (0.3 mg IM) was determined as 30.0 ± 7.1 min, the Tmax2 (15 mg sublingual tablet) came out at 43.3 ± 27.3 min and the Tmax2 (60 mg sublingual (2x30 mg tablets)) was 66.0 ± 39.1 min.
